The source made the active and inactive calls. No cut-off for these calls is given here.
How the values were obtained:
Mus musculus [1] = experiment: Anti-obesity activity in high-fat diet fed male DIO C57BL/J mouse model assessed as downregulation of FOXO1 expression level in liver at 40 to 160 mg/kg treated for 9 weeks by RT-qPCR analysis; type: functional, organism-based; settings: dose 40-160 mg/kg
Mus musculus [2] = experiment: Anti-obesity activity in high-fat diet fed male DIO C57BL/J mouse model assessed as increase in body temperature around brown adipose tissue (BAT) at 40 to 160 mg/kg treated for 3 weeks; type: functional, organism-based; settings: dose 40-160 mg/kg
Mus musculus [3] = experiment: Anti-obesity activity in high-fat diet fed male DIO C57BL/J mouse model assessed as reduction in total cholesterol level in serum at 40 to 160 mg/kg treated for 9 weeks; type: functional, organism-based; settings: dose 40-160 mg/kg
Mus musculus [4] = experiment: Anti-obesity activity in high-fat diet fed male DIO C57BL/J mouse model assessed as reduction in fasting blood glucose level at 40 to 160 mg/kg treated for 3 weeks; type: functional, organism-based; settings: dose 40-160 mg/kg
[5] = target: T1, Alpha-ketoglutarate-dependent dioxygenase FTO (Homo sapiens, UniProt Q9C0B1); experiment: Binding affinity to 3xflag-6His-tagged wild-type FTO in human HepG2 cells assessed as protection against pronase-induced proteolysis at 1 to 100 uM incubated for 1 hr by DARTS assay; type: cell-based; settings: dose 1-100 µM
Mus musculus [6] = experiment: Anti-obesity activity in high-fat diet fed DIO male C57BL/J mouse model assessed as downregulation of FOXO1 level in liver at 40 to 160 mg/kg treated for 9 weeks by Western blot analysis; type: functional, organism-based; settings: dose 40-160 mg/kg
[7] = target: T1, Alpha-ketoglutarate-dependent dioxygenase FTO; experiment: Inhibition of His-tagged FTO (unknown origin) assessed as demethylation of ALKBH5 at 10 to 80 uM; settings: dose 10-80 µM
Mus musculus [8] = organism: Mus musculus; experiment: Anti-obesity activity in high-fat diet fed male DIO C57BL/J mouse model assessed as reduction in body weight treated for 9 weeks; type: functional, organism-based; settings: dose 40-160 mg/kg
Mus musculus [9] = experiment: Anti-obesity activity in high-fat diet fed DIO male C57BL/J mouse model assessed as reduction of adipocyte size at 40 to 160 mg/kg by H and E staining analysis; type: functional, organism-based; settings: dose 40-160 mg/kg
HepG2 [10] = experiment: Downregulation of PCK1 expression in PA/OA-induced human HepG2 cells at 5 to 20 uM by RT-qPCR analysis; type: functional, cell-based; settings: dose 5-20 µM
[11] = target: T1, Alpha-ketoglutarate-dependent dioxygenase FTO; experiment: Induction of thermal stabilization of N-terminal His-tagged FTO (31 residues) in human HepG2 cells at 37 to 73 degreeC at 10 uM incubated for 6 hrs by CESTA; type: cell-based
HepG2 [12] = experiment: Binding affinity to 3xflag-6His-tagged FTO R96A/Y106A/S229A/D233/E234A mutant in human HepG2 cells assessed as protection against pronase-induced proteolysis at 1 to 100 uM incubated for 1 hr by DARTS assay; type: cell-based; settings: dose 1-100 µM
Mus musculus [13] = experiment: Anti-obesity activity in high-fat diet fed male DIO C57BL/J mouse model assessed as increase in glucose tolerance level at 40 to 160 mg/kg treated for 3 weeks; type: functional, organism-based; settings: dose 40-160 mg/kg
Mus musculus [14] = experiment: Anti-obesity activity in high-fat diet fed DIO male C57BL/J mouse model assessed as downregulation of PCK1 level in liver at 40 to 160 mg/kg treated for 9 weeks by Western blot analysis; type: functional, organism-based; settings: dose 40-160 mg/kg
Mus musculus [15] = experiment: Anti-obesity activity in high-fat diet fed DIO male C57BL/J mouse model assessed as downregulation of G6PC level in liver at 40 to 160 mg/kg treated for 9 weeks by Western blot analysis; type: functional, organism-based; settings: dose 40-160 mg/kg
Mus musculus [16] = experiment: Anti-obesity activity in high-fat diet fed DIO male C57BL/J mouse model assessed as downregulation of G6PC expression level in liver at 40 to 160 mg/kg treated for 9 weeks by RT-qPCR analysis; type: functional, organism-based; settings: dose 40-160 mg/kg
HepG2 [17] = experiment: Cytotoxicity against human HepG2 cells at 20 uM incubated for 48 hrs by Calcein/PI staining based analysis; type: functional, cell-based
HepG2 [18] = experiment: Reversal of lipid accumulation in PA/OA-induced human HepG2 cells at 5 to 20 uM measured after 36 hrs by colorimetric assay; type: functional, cell-based; settings: dose 5-20 µM
HepG2 [19] = experiment: Downregulation of G6PC expression in PA/OA-induced human HepG2 cells at 5 to 20 uM by Immunofluorescence staining based confocal microscopic analysis; type: functional, cell-based; settings: dose 5-20 µM
Mus musculus [20] = experiment: Anti-obesity activity in high-fat diet fed DIO male C57BL/J mouse model assessed as downregulation of PCK1 expression level in liver at 40 to 160 mg/kg treated for 9 weeks by RT-qPCR analysis; type: functional, organism-based; settings: dose 40-160 mg/kg
Mus musculus [21] = experiment: Anti-obesity activity in high-fat diet fed male DIO C57BL/J mouse model assessed as reduction in low-density lipoprotein cholesterol level in serum at 40 to 160 mg/kg treated for 9 weeks; type: functional, organism-based; settings: dose 40-160 mg/kg
HepG2 [22] = experiment: Downregulation of FOXO1 level in PA/OA-induced human HepG2 cells at 5 to 20 uM by Western blot analysis; type: functional, cell-based; settings: dose 5-20 µM
HepG2 [23] = experiment: Downregulation of FOXO1 expression in PA/OA-induced human HepG2 cells at 5 to 20 uM by RT-qPCR analysis; type: functional, cell-based; settings: dose 5-20 µM
HepG2 [24] = experiment: Downregulation of PCK1 level in PA/OA-induced human HepG2 cells at 5 to 20 uM by Western blot analysis; type: functional, cell-based; settings: dose 5-20 µM
Mus musculus [25] = experiment: Anti-obesity activity in high-fat diet fed male DIO C57BL/J mouse model assessed as attenuation of hepatic steatosis at 40 to 160 mg/kg treated for 9 weeks by H and E staining analysis; type: functional, organism-based; settings: dose 40-160 mg/kg
Mus musculus [26] = experiment: Anti-obesity activity in high-fat diet fed male DIO C57BL/J mouse model assessed as increase in body temperature around inguinal white adipose tissue (iWAT) at 40 to 160 mg/kg treated for 3 weeks; type: functional, organism-based; settings: dose 40-160 mg/kg
Mus musculus [27] = experiment: Anti-obesity activity in high-fat diet fed DIO male C57BL/J mouse model assessed as upregulation of UCP1 expression in adipose tissue at 40 to 160 mg/kg by RT-qPCR analysis; type: functional, organism-based; settings: dose 40-160 mg/kg
Mus musculus [28] = experiment: Anti-obesity activity in high-fat diet fed male DIO C57BL/J mouse model assessed as reduction in triglycerides level in serum at 40 to 160 mg/kg treated for 9 weeks; type: functional, organism-based; settings: dose 40-160 mg/kg
Mus musculus [29] = organism: Mus musculus; experiment: Anti-obesity activity in high-fat diet fed male DIO C57BL/J mouse model assessed as reduction in fat mass to fat mass ratio measured for 9 weeks; type: functional, organism-based; settings: dose 40-160 mg/kg
HepG2 [30] = experiment: Downregulation of G6PC expression in PA/OA-induced human HepG2 cells at 5 to 20 uM by RT-qPCR analysis; type: functional, cell-based; settings: dose 5-20 µM
Mus musculus [31] = experiment: Anti-obesity activity in high-fat diet fed DIO male C57BL/J mouse model assessed as upregulation of UCP1 in adipose tissue at 40 to 160 mg/kg by Western blot analysis; type: functional, organism-based; settings: dose 40-160 mg/kg
HepG2 [32] = experiment: Reversal of lipid accumulation in PA/OA-induced human HepG2 cells at 5 to 20 uM measured after 36 hrs by Oil Red O staining based analysis; type: functional, cell-based; settings: dose 5-20 µM
HepG2 [33] = experiment: Downregulation of G6PC level in PA/OA-induced human HepG2 cells at 5 to 20 uM by Western blot analysis; type: functional, cell-based; settings: dose 5-20 µM
HepG2 [34] = experiment: Downregulation of FOXO1 expression in PA/OA-induced human HepG2 cells at 5 to 20 uM by Immunofluorescence staining based confocal microscopic analysis; type: functional, cell-based; settings: dose 5-20 µM

Sequences of proteins named here, by UniProt entry; tags and fusion partners are left off.
UniProt Q9C0B1, whole entry, looked up: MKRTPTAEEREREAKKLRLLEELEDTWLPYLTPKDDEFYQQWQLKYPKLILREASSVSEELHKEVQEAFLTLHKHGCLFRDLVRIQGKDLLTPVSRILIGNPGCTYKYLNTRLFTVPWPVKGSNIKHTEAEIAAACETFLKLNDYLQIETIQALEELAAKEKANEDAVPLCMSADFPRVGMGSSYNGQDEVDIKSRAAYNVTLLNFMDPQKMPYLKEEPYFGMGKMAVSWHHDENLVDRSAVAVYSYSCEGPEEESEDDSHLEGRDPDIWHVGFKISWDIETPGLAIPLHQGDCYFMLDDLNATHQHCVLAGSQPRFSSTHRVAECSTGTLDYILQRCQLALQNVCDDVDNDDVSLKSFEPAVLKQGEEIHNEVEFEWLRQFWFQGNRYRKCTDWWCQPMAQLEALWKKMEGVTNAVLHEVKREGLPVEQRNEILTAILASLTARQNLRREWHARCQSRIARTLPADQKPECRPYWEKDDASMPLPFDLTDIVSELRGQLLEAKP

Question: How did the Activity (Mus musculus [1]) turn out when `O=C1C[C@@H](c2ccc(O)c(O)c2)Oc2cc(O)cc(O)c21` [ERIODICTYOL] was run?
Answer: Active

Question: And the Activity (Mus musculus [2])?
Answer: Active

Question: And the Activity (Mus musculus [3])?
Answer: Active

Question: And the Activity (Mus musculus [4])?
Answer: Active

Question: And the Activity [5]?
Answer: Active

Question: And the Activity (Mus musculus [6])?
Answer: Active

Question: What about the Activity [7] of the same compound?
Answer: Active

Question: And the Activity (Mus musculus [8])?
Answer: Dose-dependent-effect

Question: What about the Activity (Mus musculus [9]) of the same compound?
Answer: Active

Question: What about the Activity (HepG2 [10]) of the same compound?
Answer: Active

Question: What about the Activity [11] of the same compound?
Answer: Active

Question: And the Activity (HepG2 [12])?
Answer: inactive

Question: What about the Activity (Mus musculus [13]) of the same compound?
Answer: Active

Question: And the Activity (Mus musculus [14])?
Answer: Active

Question: And the Activity (Mus musculus [15])?
Answer: Active

Question: What about the Activity (Mus musculus [16]) of the same compound?
Answer: Active

Question: What about the Activity (HepG2 [17]) of the same compound?
Answer: inactive

Question: And the Activity (HepG2 [18])?
Answer: Active

Question: What about the Activity (HepG2 [19]) of the same compound?
Answer: Active

Question: What about the Activity (Mus musculus [20]) of the same compound?
Answer: Active

Question: What about the Activity (Mus musculus [21]) of the same compound?
Answer: Active

Question: What about the Activity (HepG2 [22]) of the same compound?
Answer: Active

Question: And the Activity (HepG2 [23])?
Answer: Active

Question: And the Activity (HepG2 [24])?
Answer: Active

Question: What about the Activity (Mus musculus [25]) of the same compound?
Answer: Active

Question: What about the Activity (Mus musculus [26]) of the same compound?
Answer: Active

Question: What about the Activity (Mus musculus [27]) of the same compound?
Answer: Active

Question: What about the Activity (Mus musculus [28]) of the same compound?
Answer: Active

Question: What about the Activity (Mus musculus [29]) of the same compound?
Answer: Dose-dependent-effect

Question: And the Activity (HepG2 [30])?
Answer: Active

Question: And the Activity (Mus musculus [31])?
Answer: Active

Question: And the Activity (HepG2 [32])?
Answer: Active

Question: What about the Activity (HepG2 [33]) of the same compound?
Answer: Active

Question: And the Activity (HepG2 [34])?
Answer: Active

From ChEMBL document CHEMBL6109136, “Discovery of the 2,3-Dihydrobenzopyrane-4-one as a Potent FTO Inhibitor against Obesity-Related Metabolic Diseases” (J Med Chem, 2025)
